From patent US4711245A, “Sensor for components of a liquid mixture” (Genetics International, Inc., priority 1983, dated 1987) come the findings set out here.

Amino acid sequences for entries named in this document (tags omitted). A change or cut given only in a name is not applied to a line headed by its entry.
UniProt P13006: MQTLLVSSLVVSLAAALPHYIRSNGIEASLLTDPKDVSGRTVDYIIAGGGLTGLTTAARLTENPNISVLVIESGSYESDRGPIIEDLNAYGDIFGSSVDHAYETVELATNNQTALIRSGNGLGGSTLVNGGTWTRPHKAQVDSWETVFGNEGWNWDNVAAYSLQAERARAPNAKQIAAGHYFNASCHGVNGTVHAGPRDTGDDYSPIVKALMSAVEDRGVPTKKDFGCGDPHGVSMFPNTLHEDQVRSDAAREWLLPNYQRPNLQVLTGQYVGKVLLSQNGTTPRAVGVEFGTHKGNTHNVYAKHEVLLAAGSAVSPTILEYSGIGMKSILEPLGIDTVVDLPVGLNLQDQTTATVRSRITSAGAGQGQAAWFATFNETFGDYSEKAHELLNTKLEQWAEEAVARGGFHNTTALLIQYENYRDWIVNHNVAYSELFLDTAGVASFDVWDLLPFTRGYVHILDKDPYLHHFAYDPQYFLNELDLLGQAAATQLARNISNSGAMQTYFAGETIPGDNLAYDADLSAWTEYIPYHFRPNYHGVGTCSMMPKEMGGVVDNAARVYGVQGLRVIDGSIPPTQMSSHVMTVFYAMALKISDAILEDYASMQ

A short description of series [1]: dc cyclic voltammetry of ferrocene derivatives (redox potential). The class given is physicochemical. The conditions noted are these: pH 7 and 25° C.
In series [2] the target is glucose oxidase (Aspergillus niger, UniProt P13006). The conditions noted are these: for second order rate constant for the reaction between ferricinium ion and reduced glucose oxidase: 50 mM potassium phosphate buffer, pH 7.0, 50 mM glucose, substrate excess; for Rates of glucose oxidase oxidation: pH 7 and 25° C., glucose/glucose oxidase system.

With 1,1'-ferrocene dicarboxylic acid, the “Eo/mV vs SCE” value in series [1] is given as 385 mV. Further, in series [2], the “second order rate constant for the reaction between ferricinium ion and reduced glucose oxidase” value is given as 10^4 m^-1 s^-1; the “Rates of glucose oxidase oxidation” value was 15.

Regarding 1,1'-dimethylferrocene, in series [1], the “Eo/mV vs SCE” value stood at 100 mV. The “Rates of glucose oxidase oxidation” value in series [2] turned out to be 44.

For the substance ferrocene, the “Eo/mV vs SCE” value in series [1] is on record as 165 mV. In series [2], the “second order rate constant for the reaction between ferricinium ion and reduced glucose oxidase” value is 10^4 m^-1 s^-1; the “Rates of glucose oxidase oxidation” value amounted to 15.
